Test results: ChEMBL document CHEMBL1153825, “From a natural product lead to the identification of potent and selective benzofuran-3-yl-(indol-3-yl)maleimides as glycogen synthase kinase 3beta inhibitors that suppress proliferation and survival of pancreatic cancer cells” (J Med Chem, 2009)

Columns and labels:
Format in all cases: functional, cell-based
MIA PaCa-2 = experiment: Growth inhibition of human MIAPaCa2 cells after 72 hrs by MTS assay; conditions: MIA PaCa-2, 72 h
BXPC-3 = experiment: Growth inhibition of human BxPC3 cells after 72 hrs by MTS assay; conditions: BXPC-3, 72 h
HuP-T3 = experiment: Growth inhibition of human HUPT3 cells after 72 hrs by MTS assay; conditions: HuP-T3, 72 h

IC50 (MIA PaCa-2)	SMILES	IC50 (BXPC-3)	IC50 (HuP-T3)
28 µM	Cn1cc(C2=C(c3coc4ccc(F)cc34)C(=O)NC2=O)c2cc(I)ccc21	42 µM	42 µM
	Cn1cc(C2=C(c3coc4ccccc34)C(=O)NC2=O)c2cc(I)ccc21	33 µM	
